The values that follow are results of earlier work, collected in US10753947B2, “Methods for screening voltage-gated proteins” (D.E. Shaw Research, LLC, priority 2012, dated 2020).

Chains of the proteins cited; added tags and fusions are not shown.
UniProt P22001, whole entry: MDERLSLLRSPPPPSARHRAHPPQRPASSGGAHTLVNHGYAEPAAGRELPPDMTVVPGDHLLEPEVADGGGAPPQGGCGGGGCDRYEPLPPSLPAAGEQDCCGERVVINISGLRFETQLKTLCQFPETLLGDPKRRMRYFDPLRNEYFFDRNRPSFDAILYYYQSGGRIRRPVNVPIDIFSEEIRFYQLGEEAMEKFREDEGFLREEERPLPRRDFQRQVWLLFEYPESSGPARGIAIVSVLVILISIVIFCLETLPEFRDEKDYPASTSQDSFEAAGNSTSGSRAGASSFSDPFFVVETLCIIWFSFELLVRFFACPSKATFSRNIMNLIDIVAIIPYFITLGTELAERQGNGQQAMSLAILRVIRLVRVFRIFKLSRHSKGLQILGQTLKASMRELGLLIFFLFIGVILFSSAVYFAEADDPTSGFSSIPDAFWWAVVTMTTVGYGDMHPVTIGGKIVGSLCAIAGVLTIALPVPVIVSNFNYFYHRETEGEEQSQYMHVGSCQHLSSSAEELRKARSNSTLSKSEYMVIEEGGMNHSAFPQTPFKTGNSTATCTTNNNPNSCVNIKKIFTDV

The structures appear in SMILES notation.

The data set concerns the target Kv1.3 (Homo sapiens, UniProt P22001). The following applies: Table 2, modulating Kv1.3 ion conductance; tested form: HCl; cited from earlier work.

In general, IC50 refers to the concentration that gives 50% inhibition. `CCCN=c1ccn(Cc2ccccc2)c2cc(Cl)ccc12`: the IC50 was 0.2 µM.
